Our source for the activation values is PubChem BioAssay AID588334 (Broad Institute, 2011).

The list shows a part of the results, in another mix than the full data. Calls of active or inactive are those of the source.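 Rule for the calls: active = mean activation of at least 80% with every replicate also reaching 80%; inconclusive = mean reaches 80% but some replicate falls short; inactive = the rest.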

The assay can be described thus: activators of MITF-driven TRPM1 promoter reporter, primary screen, cell-based, SK-MEL-5, luciferase, single point (AID 588334).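 Note: 0% = neutral control wells and 100% = parthenolide positive control wells.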 The settings on record: SK-MEL-5 TRPM1-promoter luciferase, 24 h; at 12.5 µM; active compounds read high; % of positive control, neutral wells = 0.
For the compound `CN1CCCC(OC(=O)C(c2ccccc2)c2ccccc2)C1` (stereo not given), the activation was inactive: 4.77%.
As for `Clc1ccc(Cl)c(NC2=NCC(CBr)S2)c1` (stereo not given), the activation was inactive: -9.01%.
As to `COc1ccccc1OP(=O)(Nc1ccc(C)cn1)Oc1ccccc1OC`, the activation was inactive: -4.71%.
For `CN(C(=O)Cc1ccc(Cl)c(Cl)c1)[C@H]1CCCC[C@H]1N1CCCC1`, the activation was inactive: 7.49%.
For the compound `Cc1ccc(N/C(=N/P(=O)(N2CCOCC2)N2CCOCC2)N2CCOCC2)cc1`, the activation is inactive: -3.13%.
Take `NC(=O)c1cc([N+](=O)[O-])cc([N+](=O)[O-])c1N`: the activation is inactive: -7.02%.
As to `Oc1ccccc1CNc1ccccn1`, the activation was inactive: 16.5%.
Turning to `O=C(NC(Sc1ccncn1)C(Cl)(Cl)Cl)c1ccccc1` (stereo not given), the activation was inactive: -8.03%.
With `Nc1cc(N)c2nonc2c1[N+](=O)[O-]` the figure was inactive: -7%; with `CC(C)CC(=O)NC(Sc1ccc(Cl)cc1)C(Cl)(Cl)Cl` (stereo not given), inactive: -2.36%; with `Cc1cc(SC(NC(=O)c2ccc(F)cc2)C(Cl)(Cl)Cl)ncn1` (stereo not given), inactive: 8.63%.
In the case of `CCOP(=O)(Nc1ccccc1)OCC` it was inactive: -4.7%.
As to `CN(C(=O)Cc1ccc(Cl)c(Cl)c1)[C@H]1CCCC[C@@H]1N1CCCC1`, the activation was inactive: 4.03%.
For `CC(=O)Nc1ccc([As](=O)(O)O)cc1`, the activation is inactive: 2.08%.
For the compound `O=C(O)c1ccccc1[As](=O)(O)O`, the activation is inactive: 0.207%.
For `CCCC1OP(N)(=O)OCC1CC` (stereo not given), the activation was inactive: 4.5%.
In the case of `Nc1cccc2ccc([As](=O)(O)O)cc12` it was inactive: -13.5%.
With `CCN(N=Nc1nonc1N)c1nonc1N`, the activation was inactive: 7.32%.
In the case of `O=C(Nc1cc([As](=O)(O)O)ccc1O)c1ccccc1` it was inactive: 1.8%; in that of `O=P1(N(CCCl)CCCl)OCCCS1` (stereo not given), inactive: 5.31%; in that of `O=C(O)CNc1ccc([As](=O)(O)O)cc1`, inactive: -0.782%.
`COC(=O)C1(C)COP(=O)(Nc2ccccc2)OC1` (stereo not given): the activation was inactive: 0.834%.
`O=[N+]([O-])c1cccc(NC2=NCC(CBr)S2)c1` (stereo not given): the activation is inactive: -0.64%.
In the case of `O=[N+]([O-])c1ncn(CCn2ncnc2[N+](=O)[O-])n1` it was inactive: 2.23%.
`CC(C)(C)C(=O)NC(Sc1ccncn1)C(Cl)(Cl)Cl` (stereo not given): the activation is inactive: 5.49%.
With `Cc1ccc(NP(=O)(Oc2ccccc2)Oc2ccccc2)nc1` the figure was inactive: 4.54%; with `CCc1nc2c(n1)c1c(non1O)c1c2no[n+]1[O-]`, inactive: -60.1%; with `O=[N+]([O-])c1cc([N+](=O)[O-])c(CCNc2ccccc2)c([N+](=O)[O-])c1`, inactive: -38%.
With `O=[N+]([O-])c1cccc2n[nH]nc12` the figure was inactive: 9.2%; with `CC(=O)N1C2C3N(C(C)=O)C1C1N(C(C)=O)C(C(N1C(C)=O)N3C(C)=O)N2C(C)=O`, inactive: -5.35%; with `COc1ccc(C2=NCC(CBr)S2)cc1` (stereo not given), inactive: 16.8%.
For the compound `CC1CCN(C(=O)Oc2c(Cl)cc(Cl)c3cccnc23)CC1`, the activation is inactive: 4.03%.
With `CC(C)=N/N=C(\N)N[N+](=O)[O-]` the figure was inactive: -5.45%; with `CN(C)C(=O)OCCc1n(C)cc[n+]1C`, inactive: 11%; with `CCN(/C(=N/P(=O)(N1CCOCC1)N1CCOCC1)N1CCOCC1)c1ccc(OC)cc1`, inactive: 5.64%.
With `Nc1ccc([As](=O)(O)c2ccc(N)cc2)cc1`, the activation is inactive: -11.8%.
For the compound `CC(C)C(=O)NC(Sc1ccccc1)C(Cl)(Cl)Cl` (stereo not given), the activation is inactive: -2.77%.
Regarding `O=P(Nc1nccs1)(c1ccccc1)c1ccccc1`, the activation was inactive: -2.5%.
In the case of `O=P(Nc1nc2ccccc2s1)(c1ccccc1)c1ccccc1` it was inactive: 11.9%; in that of `C[C@H]1OP(=O)(Oc2ccccc2)[C@H](O)[C@H](O)[C@H]1N=[N+]=[N-]` (stereo not given in full), inactive: -4.43%.
With `O=P(Nc1ccccn1)(c1ccc(Br)cc1)c1ccc(Br)cc1`, the activation was inactive: 2.88%.
With `COc1ccc(N)c([N+](=O)[O-])c1[N+](=O)[O-]`, the activation is inactive: 10.6%.
In the case of `C(Cc1nn[nH]n1)Cc1nn[nH]n1`, the activation is inactive: 1.58%.
As to `Nc1ccc([As](=O)(O)c2ccc([N+](=O)[O-])cc2)cc1`, the activation is inactive: 2.65%.
For the compound `O=[As](O)(c1ccccc1)c1ccc(O)cc1`, the activation was inactive: 1.43%.
Turning to `CC(=O)NC(SC(=S)N(C)C)C(Cl)(Cl)Cl` (stereo not given), the activation is inactive: -36%.
With `O=[N+]([O-])c1ncn(CCn2cnc([N+](=O)[O-])n2)n1`, the activation is inactive: -7.55%.
Regarding `O=P1(N(CCCl)CCCl)OCCC2CCCCN21` (stereo not given), the activation is inactive: -9.59%.
For `c1ccc(-c2nn[nH]n2)c(-c2nn[nH]n2)c1`, the activation was inactive: 1.51%.
In the case of `CCNC(=S)/N=C(\N)N[N+](=O)[O-]` it was inactive: 1.6%.
Take `O=C(NC1CCS(=O)(=O)C1)NP(=S)(Oc1ccccc1)Oc1ccccc1` (stereo not given): the activation was inactive: -3.79%.
Consider `CC(NC(=O)COC(=O)C(O)(c1ccccc1)c1ccccc1)c1ccccc1` (stereo not given), for which the activation is inactive: -2.9%.
As to `O=c1c2cc([N+](=O)[O-])ccc2[nH]c2c([N+](=O)[O-])cc([N+](=O)[O-])cc12`, the activation was inactive: -72.3%.
Consider `O=C(OC1CN2CCC1CC2)c1ccccc1` (stereo not given), for which the activation is inactive: 1.34%.
In the case of `CCC(=O)N1C2C3N(C(=O)CC)C1C1N(C(=O)CC)C(C(N1C(=O)CC)N3C(=O)CC)N2C(=O)CC` it was inactive: 8.73%.
Take `COC(=O)c1cc2c(s1)N=C(c1ccccc1)N(C)P2(=O)N1CCOCC1` (stereo not given): the activation was inactive: 4.26%.
With `CC(=O)NC(SC(=S)N(CC(C)C)CC(C)C)C(Cl)(Cl)Cl` (stereo not given) the figure was inactive: -8.17%.
On to `Cc1ccc(OP(=O)(Nc2ccccn2)Oc2ccc(C)cc2)cc1`, for which the activation is inactive: -10.4%.
For the compound `CC(C)(C)C(=O)NC(Sc1ccccc1)C(Cl)(Cl)Cl` (stereo not given), the activation is inactive: 7.65%.
Turning to `CCc1cc(O)c([N+](=O)[O-])c(C)c1[N+](=O)[O-]`, the activation is inactive: -0.579%.
For the compound `CCOc1ccc(C2=NCC(CBr)S2)cc1` (stereo not given), the activation is inactive: 2.19%.
With `CC(=O)Nc1ccc([As](=O)(O)O)c(O)c1` the figure was inactive: 5.17%.
With `CC(=O)Nc1ccc(Oc2c([N+](=O)[O-])cc([N+](=O)[O-])cc2[N+](=O)[O-])cc1`, the activation is inactive: -1.96%.
Regarding `Cc1ccccc1CN(C)C(=O)COC(=O)C(O)(c1ccccc1)c1ccccc1`, the activation is inactive: 9.89%.
Regarding `C[C@H]1OP(=O)(Oc2ccccc2)C[C@@H]2O[C@@H]21` (stereo not given in full), the activation is inactive: 0.236%.
